Assay results as given in patent publication US20250213558A1, “T-TYPE CALCIUM CHANNEL MODULATORS COMPRISING A PIPERAZINE OR 1,4-DIAZEPANE CORE AND METHODS OF USE THEREOF” (Praxis Precision Medicines, Inc., priority 2022, published 2025).

By UniProt entry, the sequences of proteins in these tests, tags left out.
UniProt O43497, whole entry: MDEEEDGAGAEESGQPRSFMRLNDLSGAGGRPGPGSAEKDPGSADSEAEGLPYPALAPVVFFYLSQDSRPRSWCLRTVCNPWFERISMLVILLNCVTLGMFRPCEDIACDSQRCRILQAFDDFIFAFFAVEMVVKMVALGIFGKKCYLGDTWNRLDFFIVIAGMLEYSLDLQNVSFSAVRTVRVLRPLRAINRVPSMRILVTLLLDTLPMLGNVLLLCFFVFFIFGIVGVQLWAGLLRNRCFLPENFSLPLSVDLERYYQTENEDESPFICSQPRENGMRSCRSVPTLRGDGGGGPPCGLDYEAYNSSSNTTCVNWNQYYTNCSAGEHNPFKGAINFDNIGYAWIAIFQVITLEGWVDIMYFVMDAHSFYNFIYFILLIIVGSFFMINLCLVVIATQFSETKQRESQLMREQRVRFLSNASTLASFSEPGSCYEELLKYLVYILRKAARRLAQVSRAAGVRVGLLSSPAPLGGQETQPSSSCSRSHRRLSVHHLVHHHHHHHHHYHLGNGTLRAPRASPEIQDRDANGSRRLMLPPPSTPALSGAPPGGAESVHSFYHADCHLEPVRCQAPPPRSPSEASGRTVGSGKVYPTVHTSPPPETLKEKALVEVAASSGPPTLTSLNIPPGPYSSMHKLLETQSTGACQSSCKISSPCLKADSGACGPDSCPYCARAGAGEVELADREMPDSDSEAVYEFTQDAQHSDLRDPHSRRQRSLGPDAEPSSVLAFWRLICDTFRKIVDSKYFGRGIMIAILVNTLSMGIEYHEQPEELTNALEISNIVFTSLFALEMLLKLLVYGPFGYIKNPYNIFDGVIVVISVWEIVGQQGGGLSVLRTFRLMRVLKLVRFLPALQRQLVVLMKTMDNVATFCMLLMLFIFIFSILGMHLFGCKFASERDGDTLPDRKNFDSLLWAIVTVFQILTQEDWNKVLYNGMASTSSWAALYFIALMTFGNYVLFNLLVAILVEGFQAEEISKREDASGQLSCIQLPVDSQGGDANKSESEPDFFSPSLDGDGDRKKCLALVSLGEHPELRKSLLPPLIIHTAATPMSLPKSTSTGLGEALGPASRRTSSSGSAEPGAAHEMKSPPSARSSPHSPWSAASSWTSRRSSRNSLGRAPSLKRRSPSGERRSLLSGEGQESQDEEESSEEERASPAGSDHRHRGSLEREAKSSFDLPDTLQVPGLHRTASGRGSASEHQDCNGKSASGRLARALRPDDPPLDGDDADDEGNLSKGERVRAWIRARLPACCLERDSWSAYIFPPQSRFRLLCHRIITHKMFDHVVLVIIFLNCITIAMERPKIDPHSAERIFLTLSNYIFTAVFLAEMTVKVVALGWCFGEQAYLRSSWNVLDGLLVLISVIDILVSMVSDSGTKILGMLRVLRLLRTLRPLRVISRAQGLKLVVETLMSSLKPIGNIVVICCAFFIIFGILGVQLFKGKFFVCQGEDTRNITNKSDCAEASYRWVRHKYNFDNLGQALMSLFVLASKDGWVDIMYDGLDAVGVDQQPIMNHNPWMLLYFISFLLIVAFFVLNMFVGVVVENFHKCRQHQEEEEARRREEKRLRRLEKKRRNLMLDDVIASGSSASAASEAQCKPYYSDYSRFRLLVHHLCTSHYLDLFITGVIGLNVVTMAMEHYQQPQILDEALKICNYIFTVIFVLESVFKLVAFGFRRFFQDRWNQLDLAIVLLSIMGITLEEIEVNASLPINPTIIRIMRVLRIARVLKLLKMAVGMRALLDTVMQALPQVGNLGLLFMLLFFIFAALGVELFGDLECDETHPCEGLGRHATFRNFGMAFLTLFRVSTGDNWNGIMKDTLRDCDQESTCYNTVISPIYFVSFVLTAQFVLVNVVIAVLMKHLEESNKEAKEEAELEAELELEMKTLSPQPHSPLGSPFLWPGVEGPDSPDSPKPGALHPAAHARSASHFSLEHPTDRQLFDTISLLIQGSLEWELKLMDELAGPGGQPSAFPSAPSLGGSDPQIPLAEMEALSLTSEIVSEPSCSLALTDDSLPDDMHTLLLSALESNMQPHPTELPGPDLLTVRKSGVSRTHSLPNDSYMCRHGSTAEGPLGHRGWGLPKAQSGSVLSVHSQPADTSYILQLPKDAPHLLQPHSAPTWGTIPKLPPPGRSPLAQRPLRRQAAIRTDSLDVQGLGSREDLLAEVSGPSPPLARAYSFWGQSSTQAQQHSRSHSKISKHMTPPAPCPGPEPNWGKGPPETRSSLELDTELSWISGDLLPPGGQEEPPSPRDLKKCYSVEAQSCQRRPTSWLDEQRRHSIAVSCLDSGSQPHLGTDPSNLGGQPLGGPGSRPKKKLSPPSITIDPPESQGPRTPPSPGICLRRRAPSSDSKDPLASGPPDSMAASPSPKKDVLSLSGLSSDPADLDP

Target: Human Cav3.1 calcium channel (Homo sapiens, UniProt O43497)
Experiment: Human Cav3.1 calcium channel patch clamp assay (SyncroPatch 384PE; single point and IC50, voltage dependent block)
Details: HEK-293 natClytin/TASK1+Cav3.1 cell line; for % Inhibition (Single Point Data): Testing Conc 1.25, patch clamp; for IC50: read-out: Cav3.1 IC50, voltage dependent block (VDB)

Structure (SMILES) | % Inhibition (Single Point Data) [%] | IC50 [nM]
CC(C)(C)NC(=O)CN1CC2CC1CN2CC(=O)Nc1cccc(OC(F)F)c1 (stereo not shown) | 95.485 | 264
Cc1ccc(Cl)c(NC(=O)CN2CC3CC(C2)N3CC(=O)NC(C)(C)C)c1 | 49.751 | 1270
